Yeast mating assay 1: variants of the scFv Ab-14

The measurements come from Engelhart et al. 2022 (doi:10.1038/s41597-022-01779-4) through the FLAb antibody collection.

Target peptide (SARS-CoV-2 spike, HR2 region): PDVDLGDISGINAS

Ab-14 is the parent antibody, in scFv form: VH, then the linker GGGGSGGGGSGGGGS, then VL. The heavy chain is unchanged in all variants.
VH: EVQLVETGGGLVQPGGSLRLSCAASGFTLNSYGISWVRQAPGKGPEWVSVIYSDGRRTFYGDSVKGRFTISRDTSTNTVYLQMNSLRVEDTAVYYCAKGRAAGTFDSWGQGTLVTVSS
VL: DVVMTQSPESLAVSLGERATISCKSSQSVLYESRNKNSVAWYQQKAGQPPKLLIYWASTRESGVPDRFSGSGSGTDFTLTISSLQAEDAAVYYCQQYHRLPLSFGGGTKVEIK

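Library AAYL50 holds single substitutions and randomly drawn double and triple substitutions in the CDRs. In AlphaSeq, yeast of one mating type display the scFv and yeast of the other type display the target. Mating (16 h, 30 °C) was followed by selection of diploids and sequencing of their barcodes. Each replicate has its own calibration line, from reference interactions of the BCL2 family. Mating was done three times.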

The parent's light chain CDRs are KSSQSVLYESRNKNSVA, WASTRES, QQYHRLPLS; each variant's own CDRs replace them letter for letter. This list gathers variants with a substitution at S62 (VL, numbered from residue 1). The Kd shown is the geometric mean over detected replicates; a lower Kd is a better binder. "no signal" means that the variant was in the library but no mating with the target was seen in any replicate; the authors take this as a sign of poor binding, and no number exists. Background: pairings of library AAYL50 with three empty control strains gave a value in 18% of cases (median 15 µM, 5th percentile 970 nM). Values in that range, when seen in few replicates, are hard to tell from nonspecific mating.

CDR-L1	CDR-L2	CDR-L3	apparent Kd	detected
KSTQSVLYESRNKNSVA	WASTREF	QQYHRLPFS	no signal	0/3
KSSCRVLYESRNKNSVA	WASTRET	QQYHRLPLS	no signal	0/3
KSSQSVLRQSRNKNSVA	WASTREW	QQYHRLPLS	110 nM	3/3
KSSQSVLYESRNINSVA	WASTRET	QQYHREPLS	21 nM	3/3
KISQSWLYESRNKNSVA	WASTRED	QQYHRLPLS	3.7 nM	3/3
KSSQSVLYESRNKNSVE	WASIREL	QQYHRLPLS	no signal	0/3
KVSQHVLYESRNKNSVA	WASTREN	QQYHRLPLS	98 nM	3/3
KSSQSVLYESRNKNSVA	WWSTREK	QQYHTLPLS	130 µM	1/3
KSSQSVLYESRNKNSVA	TASLREG	QQYHRLPLS	43 nM	3/3
KSSQPVLYESRNKSSVA	WASTREE	QQYHRLPLS	57 nM	3/3
KSSQSVLSESRNKNSVA	WARTREV	QQYHRLPLS	16 nM	3/3
KSSISVLYESRNKNSVA	WAPTREP	QQYHRLPLS	no signal	0/3
KSSQSMLYESRNKNSVA	WAQTRET	QQYHRLPLS	72 nM	3/3
KSSQSVLYESRNKNSVN	WASTREY	QQIHRLPLS	39 µM	1/3
MSSQSVLYESRNKNSVD	WASTRET	QQYHRLPLS	no signal	0/3
KSSQSVLYESRCKNSVA	WASTREI	QCYHRLPLS	650 nM	3/3
KSSQSVLYESRNKNSVA	WASTVEM	QQYHRLPRS	33 µM	3/3
KSSQQVLYESRNKNSVA	WASTREA	DQYHRLPLS	4.7 µM	1/3
KSSQFVLYESRNKNYVA	WASTRET	QQYHRLPLS	610 nM	2/3
KSSQAVLYESFNKNSVA	WASTRER	QQYHRLPLS	no signal	0/3
KSSQSVLYESRNKNSVA	WASTPEW	QQYHRLILS	1.1 mM	1/3
KSSQSVLYESRNKNSVA	WASTRER	QQYHRLMLS	39 µM	3/3
KSSQSVLYESRNKNSVA	WASTREE	LQYQRLPLS	no signal	0/3
KSSQSVLYESRNKNSVA	WASTRET	FQYHRPPLS	44 nM	3/3
KSSQSVLYESRNKNSVA	WASTREW	QQYHRLPLK	21 nM	3/3
KSSQSVLYLSRNKQSVA	WASTREC	QQYHRLPLS	no signal	0/3
KSSQSVLYESRNKNSVA	WASTREK	QQIHRLPLS	no signal	0/3
KSSQSVLYESRNFNSVA	WAGTREL	QQYHRLPLS	56 nM	3/3
KSSQSVLYESRNKNSVK	WASTRED	QQYHRLPLS	2.4 µM	1/3
KSSESVLYESRNKNSVA	WATTREP	QQYHRLPLS	2.9 nM	3/3
KSSQSVLYESRNKNSVA	WASTREV	QQYHRLPAF	37 nM	3/3
KSSQSVLYESTNKNSVA	WASTYEC	QQYHRLPLS	720 µM	1/3
KSSQSVLYESRNKNSVM	WASTRET	QYYHRLPLS	no signal	0/3
KSSQSVLYESRNKNSVA	WASTREE	QKYHRLPLH	no signal	0/3
KSSQSVLYESRNKNSPA	WASTREH	QHYHRLPLS	7.2 µM	2/3
KSSQSVLYESRRKNSVA	WASTRWK	QQYHRLPLS	no signal	0/3
KSSQSVLYESRNKNSVA	WASTRER	QQYHRLPTS	820 nM	3/3
KSSQSVLYESRNKNSVA	WASTREQ	QQYHRYPLK	150 nM	3/3
KSSQSVLYEVRNKNSVA	WASTREW	QQYHNLPLS	1.1 µM	3/3
KSSQSVLYEFRNKNSVA	CASTREE	QQYHRLPLS	no signal	0/3
KSSQSVLYESRNKNSVC	WASTVER	QQYHRLPLS	no signal	0/3
KSSQSVLYESRNKNPVA	WASTREK	QQYHRYPLS	40 nM	3/3
KGSQSVLYESRNKNSVA	WASTREV	QQYHRLPLS	68 nM	3/3

A selection of 7 entries from above:

{"CDR-L1": "KSSQSVLYESRNKNSVA", "CDR-L2": "WASTVEM", "CDR-L3": "QQYHRLPRS", "apparent Kd": "33 µM", "detected": "3/3"}
{"CDR-L1": "KSSQSVLYESRCKNSVA", "CDR-L2": "WASTREI", "CDR-L3": "QCYHRLPLS", "apparent Kd": "650 nM", "detected": "3/3"}
{"CDR-L1": "KSSQSVLYESTNKNSVA", "CDR-L2": "WASTYEC", "CDR-L3": "QQYHRLPLS", "apparent Kd": "720 µM", "detected": "1/3"}
{"CDR-L1": "KSSQSVLYESRNKNSVK", "CDR-L2": "WASTRED", "CDR-L3": "QQYHRLPLS", "apparent Kd": "2.4 µM", "detected": "1/3"}
{"CDR-L1": "KSSQSVLYESRRKNSVA", "CDR-L2": "WASTRWK", "CDR-L3": "QQYHRLPLS", "apparent Kd": "no signal", "detected": "0/3"}
{"CDR-L1": "KSSQSVLYLSRNKQSVA", "CDR-L2": "WASTREC", "CDR-L3": "QQYHRLPLS", "apparent Kd": "no signal", "detected": "0/3"}
{"CDR-L1": "KSSQSVLYEVRNKNSVA", "CDR-L2": "WASTREW", "CDR-L3": "QQYHNLPLS", "apparent Kd": "1.1 µM", "detected": "3/3"}